Measured values taken from patent US8969358B2, “Buprenorphine analogs” (dated 2015).

Key:
[1] = target: T1, κ opioid receptor (Homo sapiens (Human), UniProt P41145); test: κ-opioid receptor [35S]GTPγS functional assay; details: for EC50: read-out: GTPγS κ EC50; for GTPγS κ Emax: relative to the effect elicited by U69,593
[2] = target: μ-opioid receptor (Homo sapiens (Human), UniProt P35372); test: μ-opioid receptor [35S]GTPγS functional assay; details: read-out: GTPγS μ EC50; bound given in μM
[3] = target: T1, κ opioid receptor; test: κ-opioid receptor radioligand dose displacement binding assay ([3H]-U69,593); details: read-out: Ki κ; binding affinity

| Compound | EC50 ([1]; bound given in μM) [µM] | EC50 [1] [µM] | GTPγS κ Emax [1] [%] | further results |
| --- | --- | --- | --- | --- |
| CO[C@]12CC[C@@]3(C[C@@H]1CNC(=O)[C@@H]1CCCN1C(C)=O)[C@H]1Cc4ccc(O)c5c4[C@@]3(CCN1CC1CC1)[C@H]2O5 | > 20 | – | – | – |
| COc1ccc2c3c1O[C@H]1[C@@]4(OC)CC[C@@]5(C[C@@H]4CNC(=O)[C@H](C)N)[C@@H](C2)N(CC2CC2)CC[C@]315 | – | 1.61 | 36.67 | EC50 [2]: > 20 µM |
| COC12CC[C@@]3(C[C@@H]1CNC(=O)c1nccnc1C(=O)O)[C@H]1Cc4ccc(O)c5c4[C@@]3(CCN1CC1CC1)[C@H]2O5 | > 20 | – | – | – |
| CO[C@]12CC[C@@]3(C[C@@H]1CNC(=O)[C@H](C)N)[C@H]1Cc4ccc(O)c5c4[C@@]3(CCN1CC1CC1)[C@H]2O5 | – | 0.00421 | 29.33 | – |
| CO[C@]12CC[C@@]3(C[C@@H]1CNC(=O)[C@H](CC(=O)O)NC(C)=O)[C@H]1Cc4ccc(O)c5c4[C@@]3(CCN1CC1CC1)[C@H]2O5 | – | 0.058 | 14.33 | – |
| CO[C@]12CC[C@@]3(C[C@@H]1CNC(=O)[C@H](C)NC(C)=O)[C@H]1Cc4ccc(O)c5c4[C@@]3(CCN1CC1CC1)[C@H]2O5 | – | 0.00623 | 25.67 | – |
| COC12CC[C@@]3(C[C@@H]1CNC(=O)c1nccnc1C(N)=O)[C@H]1Cc4ccc(O)c5c4[C@@]3(CCN1CC1CC1)[C@H]2O5 | > 20 | – | – | – |
| COC12CC[C@@]3(C[C@@H]1CNC(=O)CCc1nnn[nH]1)[C@H]1Cc4ccc(O)c5c4[C@@]3(CCN1CC1CC1)[C@H]2O5 | – | 0.0263 | 16.67 | – |
| CO[C@]12CC[C@@]3(C[C@@H]1CNC(=O)[C@H](Cc1c[nH]cn1)NC(C)=O)[C@H]1Cc4ccc(O)c5c4[C@@]3(CCN1CC1CC1)[C@H]2O5 | > 20 | – | – | – |
| CO[C@]12CC[C@@]3(C[C@@H]1CNC(=O)[C@@H](N)CC(C)C)[C@H]1Cc4ccc(O)c5c4[C@@]3(CCN1CC1CC1)[C@H]2O5 | – | 0.0107 | 27.00 | – |
| CC[C@H](C)[C@H](NC(C)=O)C(=O)NC[C@H]1C[C@@]23CC[C@]1(OC)[C@@H]1Oc4c(O)ccc5c4[C@@]12CCN(CC1CC1)[C@@H]3C5 | > 20 | – | – | – |
| COC12CC[C@@]3(C[C@@H]1CNC(=O)CCC(N)=O)[C@H]1Cc4ccc(O)c5c4[C@@]3(CCN1CC1CC1)[C@H]2O5 | – | 0.00919 | 26.33 | – |
| CO[C@]12CC[C@@]3(C[C@@H]1CNC(=O)[C@H](Cc1ccc(O)cc1)NC(C)=O)[C@H]1Cc4ccc(O)c5c4[C@@]3(CCN1CC1CC1)[C@H]2O5 | > 20 | – | – | – |
| CO[C@]12CC[C@@]3(C[C@@H]1CNC(=O)[C@H](CC(N)=O)NC(C)=O)[C@H]1Cc4ccc(O)c5c4[C@@]3(CCN1CC1CC1)[C@H]2O5 | > 20 | – | – | – |
| CO[C@]12CC[C@@]3(C[C@@H]1CNC(=O)[C@@H](N)CO)[C@H]1Cc4ccc(O)c5c4[C@@]3(CCN1CC1CC1)[C@H]2O5 | – | 0.00608 | 23.50 | – |
| CC[C@H](C)[C@H](N)C(=O)NC[C@H]1C[C@@]23CC[C@]1(OC)[C@@H]1Oc4c(O)ccc5c4[C@@]12CCN(CC1CC1)[C@@H]3C5 | > 20 | – | – | – |
| CO[C@]12CC[C@@]3(C[C@@H]1CNC(=O)[C@@H](N)CC(N)=O)[C@H]1Cc4ccc(O)c5c4[C@@]3(CCN1CC1CC1)[C@H]2O5 | – | 0.00561 | 16.00 | – |
| COC12CC[C@@]3(C[C@@H]1CNC(=O)CCCCC(=O)O)[C@H]1Cc4ccc(O)c5c4[C@@]3(CCN1CC1CC1)[C@H]2O5 | – | 0.0576 | 21.00 | – |
| CO[C@]12CC[C@@]3(C[C@@H]1CNC(=O)[C@H](CC(C)C)NC(C)=O)[C@H]1Cc4ccc(O)c5c4[C@@]3(CCN1CC1CC1)[C@H]2O5 | > 20 | – | – | – |
| CO[C@]12CC[C@@]3(C[C@@H]1CNC(=O)[C@@H]1CCCN1)[C@H]1Cc4ccc(O)c5c4[C@@]3(CCN1CC1CC1)[C@H]2O5 | – | 0.00268 | – | Ki [3]: 0.07 nM |
| COC12CC[C@@]3(C[C@@H]1CNC(=O)CCC(=O)O)[C@H]1Cc4ccc(O)c5c4[C@@]3(CCN1CC1CC1)[C@H]2O5 | – | 0.0622 | 22.25 | – |
| CO[C@]12CC[C@@]3(C[C@@H]1CNC(=O)CNC(C)=O)[C@H]1Cc4ccc(O)c5c4[C@@]3(CCN1CC1CC1)[C@H]2O5 | > 20 | – | – | – |

Like-named read-outs stand apart in the source and are kept apart here.
